Values quoted from earlier work, collected in article PMC3810412 (Bioorganic & medicinal chemistry letters, 2013).

Sequences of proteins named here, by UniProt entry; tags and fusion partners are left off. A change or cut given only in a name is not applied to a line headed by its entry.
UniProt P32300, whole entry: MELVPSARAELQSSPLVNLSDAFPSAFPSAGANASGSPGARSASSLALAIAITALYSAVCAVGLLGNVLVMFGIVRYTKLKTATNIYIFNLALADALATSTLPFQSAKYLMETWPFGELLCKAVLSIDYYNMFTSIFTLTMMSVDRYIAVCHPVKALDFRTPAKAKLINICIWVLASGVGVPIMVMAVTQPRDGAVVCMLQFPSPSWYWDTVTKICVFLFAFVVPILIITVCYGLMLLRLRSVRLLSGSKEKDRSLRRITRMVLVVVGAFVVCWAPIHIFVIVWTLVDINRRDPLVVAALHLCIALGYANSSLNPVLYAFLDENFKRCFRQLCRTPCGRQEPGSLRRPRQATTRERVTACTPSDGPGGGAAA
UniProt P97266, whole entry, looked up: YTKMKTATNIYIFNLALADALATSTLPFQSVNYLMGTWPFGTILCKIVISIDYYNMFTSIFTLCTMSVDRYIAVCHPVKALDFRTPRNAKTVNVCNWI

Experiments:
MVD (δ) = MVD (δ) (Mus musculus, UniProt P32300); settings: read-out: MVD (δ) opioid agonist IC50; cited from earlier work
GPI (μ) = GPI (μ) (Cavia porcellus, UniProt P97266); settings: read-out: GPI (μ) opioid agonist IC50; cited from earlier work

Biphalin [reference compound]
IC50 (MVD (δ)): 2.7 nM
IC50 (GPI (μ)): 8.8 nM
